Each structure is given as a SMILES string. The entries are a selection whose mix differs from that of the whole data set. Active and inactive are the calls of the source. Calls follow the shape of the dose curve; as a rule, active = well fitted inhibition curve with a large enough effect; inconclusive = small, poorly fitted or top-dose-only effect; inactive = no such curve, though single readings can be large or run the other way.

The record followed here is PubChem BioAssay AID485364 (National Center for Advancing Translational Sciences (NCATS), 2010).
% is scaled to controls: 0 for no effect and ±100 for the full control effect; potency is read from the fitted curve at half-maximal effect.

This test has as its target Schistosoma mansoni thioredoxin glutathione reductase (TGR) (UniProt Q962Y6). Kind of test: qHTS Assay for the Inhibitors of Schistosoma Mansoni Peroxiredoxins. Also: nearly all actives have a fitted effect of over 60% in size. The note with it: purified TGR, DTNB reduction, TNB absorbance 405 nm; series mostly up to 114 µM; activity change, negative = inhibition: at the top concentration. An excerpt: Schistosomiasis is a major neglected tropical disease that currently affects over 200 million. It is caused by different species of flatworms, such as Schistosoma mansoni. Over the last century, drugs to treat the disease have evolved from potassium antimonyl tartrate, artemisinin, oxamniquine, to praziquantel, with praziquantel remaining the universally-used single drug of choice over the past three decades. However, transmission rates have changed little with praziquantel, and there is evidence for the development of drug resistant parasites. Because there is currently no suitable alternative therapy available, there is an urgent need to identify new targets and drugs for schistosomiasis treatment. Thioredoxin glutathione reductase (TGR), one uniquely positioned S. mansoni enzyme, has been identified as a major component of the worms' distinct and compressed antioxidant "firewall". TGR is a multifunctional enzyme that catalyzes the interconversion between reduced and oxidized forms of both glutathione (GSH) and thioredoxins, thus making it an attractive new antiparasitic target. Recently, a quantitative high-throughput screen of the NIH Molecular Libraries Small Molecule Repository (MLSMR, ~71K at the time of the screen in 2007) was performed using an assay that targeted both TGR and peroxiredoxin2 (Prx2, an H2O2-reducing enzymatic component of the S. mansoni redox "firewall") by following the decrease of NADPH fluorescence. […] Additional mechanistic link between exogenous NO donation and parasitic injury for the oxadiazole-2-oxide class of compounds was also expanded and better defined. Although the screen addressed both TGR and Prx2, the assay required post-screen target deconvolution for further characterization of the actives. In addition, the fluorescence assay was also subject to fluorescence interference from compound library members. We have developed a 1536-well-based kinetic HTS assay to address TGR alone. The assay followed the reduction of 5, 5'-dithiobis (2-nitrobenzoic acid) (DTNB) (Ellman's reagent) by NADPH and measured the increase in absorbance at 412 nm of the reaction product, TNB. […] This assay format can be used to screen the current MLSMR collection (with >300K compounds available) to find novel TGR inhibitors. Furoxan is a good choice to serve as a positive control in the primary HTS assay.
Three microliters of reagents (100 uM NADPH and 20 nM TGR or 100 uM NADPH as no-enzyme control) were dispensed into 1,536-well black clear-bottomed plates. Compounds (23 nL) were transferred via Kalypsys pin tool equipped with 1536-pin array (10 nL slotted pins, V&P Scientific, San Diego, CA). The plates were then be incubated for 15 min at room temperature, and 1 uL aliquot of 500 uM NADPH were added, immediately followed by a 1 uL aliquot of 15 mM DTNB to start the reaction. The plate was transferred to a ViewLux high-throughput CCD imager (Perkin-Elmer, Wellesley, MA) where kinetic measurements of the TNB absorbance were acquired using a 405 excitation filter. Throughout the screen, reagent bottles and all liquid lines were made light-tight to minimize reagent degradation. All screening operations were performed on a fully integrated robotic system (Kalypsys, San Diego, CA) containing one RX-130 and two RX-90 anthropomorphic robotic arms (Staubli, Duncan, SC). Library plates were screened starting from the lowest and proceeding to the highest concentration, and a "double-dipping" step of the highest concentration was required to access higher concentrations of compounds. Vehicle-only plates, with DMSO being pin-transferred to the entire column 5-48 compound area, were inserted uniformly at the beginning and the end of each library in order to monitor for and record any shifts in the background, which can be affected by reagent dispensers or loss in enzyme activity overtime. […]
For the compound `COP1(=S)c2c(C)nn(CCC#N)c2N=C(c2ccc(F)cc2)N1C` (configuration not stated), the “activity change, negative = inhibition” value was inactive: 7.18%.
Turning to `O=C(Nc1ccncc1[N+](=O)[O-])c1ccc([N+](=O)[O-])cc1[N+](=O)[O-]`, the “activity change, negative = inhibition” value was inactive: 8.43%.
Consider `O=C(COc1ccccc1)OC1CN2CCC1CC2` (configuration not stated), for which the “activity change, negative = inhibition” value was inactive: 1.06%.
In the case of `CCOC(=O)c1ccc(NC(=O)C(C)(CCl)SC)cc1` (configuration not stated), the “activity change, negative = inhibition” value is inactive: -6.93%.
As for `O=C(OC1CN2CCC1CC2)c1cccc([N+](=O)[O-])c1` (configuration not stated), the “activity change, negative = inhibition” value was inactive: 0%.
Consider `CCOC(=O)Nc1ccc([As](=O)(O)O)c(O)c1`, for which the “activity change, negative = inhibition” value is inactive: -0.12%.
For `Cc1cc(SC(NC(=O)c2ccccc2)C(Cl)(Cl)Cl)nc(C(C)C)n1` (configuration not stated), the “activity change, negative = inhibition” value is inactive: -21.8%.
Still for that read-out and setting: under `CCCCOc1ccc(C(=O)NCC2(N3CCCCC3)CCCCC2)cc1OC` stands inactive: 2.64%.
For the compound `CCOC(=O)Nc1cccc([As](=O)(O)O)c1`, the Potency was active: 28.2 µM.
As for `O=[N+]([O-])c1ccc(Nc2ccc(Oc3ccc([N+](=O)[O-])cc3[N+](=O)[O-])cc2)c([N+](=O)[O-])c1`, the “activity change, negative = inhibition” value is inactive: -2.68%.
For `COc1cc(C(=O)NCC2(N3CCOCC3)CCCCC2)ccc1OCC(C)C`, the “activity change, negative = inhibition” value was inactive: -3.06%.
On to `O=[As](O)(c1ccc(O)cc1)c1ccccc1O`, for which the “activity change, negative = inhibition” value was inactive: -1.02%.
`C[As](=O)(O)c1cccc(C(=O)O)c1`: the “activity change, negative = inhibition” value was inactive: -30.7%.
In the case of `Cc1ccc2nc3c(c(C)c2c1)CC(C(Cl)Cl)S3` (configuration not stated), the “activity change, negative = inhibition” value was inactive: -9.21%.
For the compound `Cc1ccc(OP(=O)(Nc2ccc([N+](=O)[O-])cn2)Oc2ccc(C)cc2)cc1`, the “activity change, negative = inhibition” value was inactive: 5.16%.
For `CC(C)c1ccc(OP(=O)(Nc2ccccn2)Oc2ccccc2F)cc1` (configuration not stated), the “activity change, negative = inhibition” value was inactive: 1.17%.
`ClCCSc1nnc(-c2cccnc2)o1`: the “activity change, negative = inhibition” value was inactive: -2.53%.
As to `CCN(CC)C(=S)SC(NC=O)C(Cl)(Cl)Cl` (configuration not stated), the “activity change, negative = inhibition” value was inactive: 5.51%.
Turning to `CC(C)NC(=O)NP(=O)(Oc1ccccc1)Oc1ccccc1`, the “activity change, negative = inhibition” value was inactive: -6.15%.
Take `Cc1cc(=O)[nH]c(N[N+](=O)[O-])n1`: the “activity change, negative = inhibition” value is inactive: 7.46%.
Consider `O=C(OC1CN2CCC1CC2)C12CC3CC(CC(C3)C1)C2` (configuration not stated), for which the “activity change, negative = inhibition” value was inactive: -1.12%.
For `Cc1c2c(nc3ccccc13)SC(C(Cl)Cl)C2` (configuration not stated), the “activity change, negative = inhibition” value was inactive: -10.6%.
For `COc1cc(I)ccc1[As](=O)(O)O`, the Potency was active: 1.41 µM.
As for `COc1ccc2nc(NP(=O)(c3ccccc3)c3ccccc3)sc2c1`, the “activity change, negative = inhibition” value was inactive: -8.33%.
The same measure, in the same setting: then `COc1ccc(N/C(=N/P(=O)(N2CCOCC2)N2CCOCC2)N2CCOCC2)cc1`, with inactive: -1.33%; and `CS(=O)(=O)c1ccc(Cl)c(NC(=O)COC(=O)C(O)(c2ccccc2)c2ccccc2)c1`, with inactive: -19.1%.
Take `COc1cc(C(=O)NCC2(N3CCOCC3)CCCCC2)cc(Cl)c1OC(C)C`: the “activity change, negative = inhibition” value is inactive: -3.73%.
Consider `O=[As](O)(O)c1cccnc1`, for which the Potency is active: 1.41 µM.
`O=C(OC1CN2CCC1CC2)c1ccc(Cl)cc1` (configuration not stated): the “activity change, negative = inhibition” value was inactive: -8.23%.
As for `Cc1cccc(OCC(=O)OC2CN3CCC2CC3)c1` (configuration not stated), the “activity change, negative = inhibition” value was inactive: 0.983%.
For `CCCOP(=S)(Nc1nc(N)cc(=O)[nH]1)OCCC`, the “activity change, negative = inhibition” value is inactive: 11%.
With `Nc1cccc2c([As](=O)(O)O)cccc12`, the Potency was active: 15.8 µM.
As to `CCOP(=O)(Nc1cccc2ccccc12)OCC`, the “activity change, negative = inhibition” value is inactive: 4.26%.
Regarding `COc1cc(C2NCCC3(OCCO3)C2(C)C)cc(OC)c1OC` (configuration not stated), the “activity change, negative = inhibition” value is inactive: -4.26%.
Regarding `CS(=O)(=O)c1cc([N+](=O)[O-])c2no[n+]([O-])c2c1`, the Potency was active: 5.01 µM.
For the compound `O=P(Nc1nccs1)(c1ccccc1)c1nc2ccccc2s1` (configuration not stated), the Potency was active: 0.282 µM.
`O=P(Nc1nccs1)(Oc1ccccc1)Oc1ccccc1`: the “activity change, negative = inhibition” value was inactive: -1.16%.
As to `CCOP1(=S)c2c(C)nn(CCC#N)c2N=C(c2ccccc2F)N1C` (configuration not stated), the “activity change, negative = inhibition” value was inactive: 4.88%.
`O=C(O)COc1ccc([As](=O)(O)O)cc1[N+](=O)[O-]`: the Potency was active: 17.8 µM.
On to `O=[N+]([O-])c1ccc2c(c1)nnn2O`, for which the “activity change, negative = inhibition” value is inactive: -6.13%.
As for `CN(C(=O)Cc1ccccc1)[C@@H]1CC[C@]2(CCCO2)C[C@H]1N1CCCC1`, the “activity change, negative = inhibition” value is inactive: 0%.
As for `CCOP1(=S)c2c(C)nn(CCC#N)c2N=C(c2ccc(F)cc2)N1C` (configuration not stated), the activity change, negative = inhibition is inactive: 7.82% [at 11.4 µM].
As for `N#CCCN(C(=O)COC(=O)C(O)(c1ccccc1)c1ccccc1)c1ccc(F)cc1`, the “activity change, negative = inhibition” value was inactive: 0.84%.
Same read-out and setting: under `CC1CCC(C(C)C)C(OP(=O)(Nc2ccccn2)c2ccccc2)C1` (configuration not stated) stands inactive: 7.66%; under `Cc1ccc(C(=O)OC2CN3CCC2CC3)cc1` (configuration not stated), inactive: -1.21%.
Still for that read-out and setting: under `Cc1nn(-c2ccccc2)c2c1P(=O)(N1CCOCC1)N(C)C(c1ccccc1)=N2` (configuration not stated) stands inactive: 2.15%; under `O=C(/C=C/c1ccccc1)OC1CN2CCC1CC2` (configuration not stated), inactive: 31.8%.
`CN(C)C1(CNC(=O)c2ccc(S(C)(=O)=O)cc2)CCCCC1`: the “activity change, negative = inhibition” value was inactive: 8.68%.
Regarding `O=P1(Nc2ncccn2)COc2ccccc2OC1`, the “activity change, negative = inhibition” value was inactive: -4.9%.
Same read-out and setting: then `O=P1(Nc2ccc(Br)cn2)COc2ccccc2OC1`, with inactive: 3.61%.
For the compound `NS(=O)(=O)c1cccc(NC(=O)COC(=O)C(O)(c2ccccc2)c2ccccc2)c1`, the “activity change, negative = inhibition” value is inactive: -2.71%.
`O=[As](O)(c1cccs1)c1cccs1`: the Potency is active: 5.62 µM.
Consider `Cc1ccc(OCC(=O)OC2CN3CCC2CC3)cc1` (configuration not stated), for which the “activity change, negative = inhibition” value is inactive: -0.277%.
In the case of `Nc1cccc([As](=O)(O)c2ccccc2)c1`, the “activity change, negative = inhibition” value is inactive: -5.44%.
Regarding `CCOP(=O)(Nc1ccc(C)cn1)OCC`, the “activity change, negative = inhibition” value was inactive: 8.21%.
Turning to `CCOP(=O)(NC(=NC(C)c1ccccc1)NC(C)c1ccccc1)OCC` (configuration not stated), the “activity change, negative = inhibition” value is inactive: 3.94%.
On the same count and under the same terms, then `O=P1(Nc2ccccn2)COc2ccccc2OC1`, with inactive: 3.96%; and `CCC1=CC2Cc3nc4ccc(Cl)cc4c(N)c3C(C1)C2` (configuration not stated), with inactive: -15.6%.
Turning to `CC(C)(C)C(=O)NC(Sc1ncccn1)C(Cl)(Cl)Cl` (configuration not stated), the Potency was active: 1.41 µM.
On to `Clc1n[nH]nc1-c1nn[nH][15n]1`, for which the “activity change, negative = inhibition” value is inactive: 12.1%.
As to `COc1ccccc1CNC(=O)COC(=O)C(O)(c1ccccc1)c1ccccc1`, the “activity change, negative = inhibition” value is inactive: -1.14%.
The same measure, in the same setting: under `O=[As](O)(c1ccccc1Br)c1ccccc1Br` stands inactive: -28.8%.
